Values quoted from earlier work, collected in patent EP3505218B1, “A GENTLE DETERGENT COMPOSITION FOR GREASY AND ACNEIC SKINS” (Unifarco S.p.A., priority 2017, dated 2019).

Settings: raw material description; cited from earlier work

Substance: PCA ethyl cocoyl arginate
- in vitro cytotoxicity: gentleness on the skin
